The term IC50 denotes the concentration that inhibits the measured activity by half.

Chains of the proteins cited; added tags and fusions are not shown.
UniProt P16232, whole entry: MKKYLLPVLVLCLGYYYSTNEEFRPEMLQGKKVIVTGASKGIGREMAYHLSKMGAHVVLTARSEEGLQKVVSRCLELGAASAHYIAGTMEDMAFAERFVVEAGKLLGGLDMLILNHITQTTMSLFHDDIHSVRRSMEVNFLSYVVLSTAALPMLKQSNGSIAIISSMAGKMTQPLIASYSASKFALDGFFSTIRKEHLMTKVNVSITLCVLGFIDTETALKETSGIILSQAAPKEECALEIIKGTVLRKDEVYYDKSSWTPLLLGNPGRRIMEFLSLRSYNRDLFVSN
UniProt P28845, whole entry: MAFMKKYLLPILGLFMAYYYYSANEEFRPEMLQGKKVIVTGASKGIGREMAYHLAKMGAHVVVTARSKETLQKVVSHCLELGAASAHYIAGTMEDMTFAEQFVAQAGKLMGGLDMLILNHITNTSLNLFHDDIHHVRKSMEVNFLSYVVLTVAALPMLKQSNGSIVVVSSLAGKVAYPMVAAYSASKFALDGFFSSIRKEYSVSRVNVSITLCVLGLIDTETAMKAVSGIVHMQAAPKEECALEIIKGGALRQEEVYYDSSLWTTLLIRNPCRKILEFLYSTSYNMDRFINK
UniProt P80365, whole entry: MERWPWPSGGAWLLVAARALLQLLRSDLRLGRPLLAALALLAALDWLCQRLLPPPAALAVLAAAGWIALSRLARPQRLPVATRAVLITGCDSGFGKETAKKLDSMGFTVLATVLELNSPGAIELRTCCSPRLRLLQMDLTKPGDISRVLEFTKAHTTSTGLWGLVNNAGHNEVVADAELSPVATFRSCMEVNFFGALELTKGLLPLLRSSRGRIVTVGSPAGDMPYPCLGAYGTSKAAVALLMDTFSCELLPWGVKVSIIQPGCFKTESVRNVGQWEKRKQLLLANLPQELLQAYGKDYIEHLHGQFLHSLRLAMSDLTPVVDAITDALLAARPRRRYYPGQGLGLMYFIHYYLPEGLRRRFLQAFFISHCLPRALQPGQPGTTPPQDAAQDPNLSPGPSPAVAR

In one experiment the target is cellular 11β-HSD1 (Rattus norvegicus, UniProt P16232). Nature of the experiment: inhibition of cellular 11β-HSD1 activity in primary rat hepatocytes. The following applies: 2 h incubation. Here is the method: The inhibition of cellular 11β-HSD1 activity in primary rat hepatocytes is determined as follows:
Male Sprague-Dawley rats weighing 180-200 g are anesthetized with sodium pentobarbital (65 mg/kg). The liver is perfused in situ with calcium-free Earl's Balanced Salt Solution (EBSS) followed by EBSS containing 100-150 U/mL of collagenase, 1.8 mM CaCl2 and 10 mM HEPES, pH 7.4. The perfused liver is removed and aseptically placed in warm William's Medium E containing 10% BCS. After decapsulation, the organ is transferred to fresh medium and gently shaken to facilitate tissue dissociation and cell release. Hepatocytes are separated from nonparenchymal and dead cells by repeated low speed centrifugation. Cell viability is determined by trypan blue exclusion. […]
Enzyme activity is measured in the medium of primary cultures of rat hepatocytes 48 h after plating the cells. […] The dissolved residues are quantitatively transferred to thin layer plates and developed in chloroform-methanol (90:10). The TLC plates are scanned on a Bioscan imaging detector and the fractional conversion of 11-dehydrocorticosterone to corticosterone is calculated. […] Enzyme activity is expressed as pmoles of product formed per mg protein per hour.

In experiment [1] the target is human recombinant 11β-HSD1 (Homo sapiens, UniProt P28845). Nature of the experiment: in vitro inhibition of human recombinant 11β-HSD1 (Pichia pastoris microsomes, [3H]cortisone to [3H]cortisol). The following applies: read-out: 11β-HSD1 IC50; recombinant human 11β-HSD1 microsomes, 500 nM cortisone mixture, NADPH, 90 min at 37° C. As for the experimental part: The in vitro inhibition of human recombinant 11β-HSD1 is determined as follows:
Recombinant human 11β-HSD1 is expressed in yeast Pichia pastoris. Cultures are grown at 30° C. for 3 days in the presence of methanol to induce enzyme expression. The microsomal fraction overexpressing 11β-HSD1 is prepared from the cell homogenate and used as the enzyme source for primary screening. A test compound at the desired concentration is preincubated for 10 min at RT with 3 μg of the microsomal protein in 50 mM sodium phosphate, pH 7.5, in a total volume of 80 μL. The enzyme reaction is initiated by adding 20 μL of a mixture containing 5 mM NADPH, 500 nM cortisone, and 80,000 dpm of [^3H]cortisone in the same buffer and is terminated by ethyl acetate after incubation for 90 min at 37° C. The production of [^3H]cortisol is quantitated upon separation from [^3H]cortisone by a C18 column on HPLC equipped with a radioactivity detector. Glycerrhetinic acid, a known inhibitor of 11β-HSD1, is used as a standard.

Experiment [2] deals with corticosterone production in adrenalectomized (ADX) mice. Nature of the experiment: inhibition of corticosterone production in adrenalectomized (ADX) mice. The following applies: ADX CD1 mice, orally 25 mg/kg each at 2 and 4 h before sacrifice; liver corticosterone. Here is the method:
Inhibition of corticosterone production in adrenalectomized (ADX) mice is determined as follows:
Bilateral adrenalectomy is performed in male mice of the CD1 strain (6 to 8 weeks of age, 25-30 g body weight) through a lumbar laparotomy. After 10 days the animals are fasted for 24 h. Compounds are administered orally at 25 mg/kg each at 2 and 4 h before sacrifice. A second group of animals receives carbenoxolone at the same dose, and a third group receives the vehicle (cornstarch). Homogenized liver samples are used to measure corticosterone concentration which is determined by radioimmunoassay and is expressed as pg of corticosterone per mg of liver protein.

The next experiment has as its target human 11β-HSD2 (Homo sapiens, UniProt P80365). Nature of the experiment: in vitro inhibition of human 11β-HSD2 (SW-620 cell lysates, [3H]cortisol to [3H]cortisone). As for the experimental part:
The in vitro inhibition of human 11β-HSD2 is determined as follows:
The SW-620 human colon carcinoma cell line is obtained from the American Type Culture Collection (ATCC). Cells are plated at a density of 8-10×10^4 cells/cm^2 in DMEM/F12 containing 5% BCS, 100 U/mL penicillin, 100 μg/mL streptomycin and […] amphotericin B. Cultures are grown to 80-90% confluence in a humidified, atmosphere of 5% CO2 at 37° C. The medium is changed to serum-free, phenol red-free DMEM/F12 at 24 h before harvesting the cells.
After 24 h in serum-free medium, cultured SW-620 cells are rinsed and scraped in Kreb's-Ringer buffer, pH 7.4, containing 1 mM EDTA, 2 μg/mL aprotinin, 10 μM leupeptin and 1 μM pepstatin. […]
Dehydrogenase activity is quantified by measuring the conversion of [^3H]cortisol to [^3H]cortisone using lysates of SW-620 cells as the enzyme source. […] The dissolved residues are quantitatively transferred to thin layer plates and developed in chloroform-methanol (90:10). […] The TLC plates are scanned on a Bioscan radioimaging detector (Bioscan, Washington, D.C.), and the fractional conversion of cortisol to cortisone is calculated. Enzyme activity is expressed as pmoles of product formed per mg protein per hour. […]

Consider `COc1cc(NC(=O)c2ccccc2)ccc1C(=O)N1CC[C@H]2CCCC[C@H]2C1` (relative stereo), for which the “cellular 11β-HSD1 % inhibition @ 1 μM” value at cellular 11β-HSD1 was 67%. Moreover, in experiment [1], the IC50 came out at 560 nM. The “ADX mice % change in corticosterone” value in experiment [2] is recorded as −73%. Besides, the “11β-HSD2 % inhibition @ 10 μM” value on human 11β-HSD2 is reported as 30%.

(Values after US20060205772A1, “Amide derivatives and their use as inhibitors of 11-beta-hydroxysteroid dehydrogenase type I” (priority 2003, published 2006).)
